# Assay results from patent publication US20250339403A1, “Tryptamine Formulations and Uses Thereof” (Natural MedTech Pty Ltd, priority 2022, published 2025).
# Amino acid sequences for entries named in this document (tags omitted).
# UniProt P14842, whole entry: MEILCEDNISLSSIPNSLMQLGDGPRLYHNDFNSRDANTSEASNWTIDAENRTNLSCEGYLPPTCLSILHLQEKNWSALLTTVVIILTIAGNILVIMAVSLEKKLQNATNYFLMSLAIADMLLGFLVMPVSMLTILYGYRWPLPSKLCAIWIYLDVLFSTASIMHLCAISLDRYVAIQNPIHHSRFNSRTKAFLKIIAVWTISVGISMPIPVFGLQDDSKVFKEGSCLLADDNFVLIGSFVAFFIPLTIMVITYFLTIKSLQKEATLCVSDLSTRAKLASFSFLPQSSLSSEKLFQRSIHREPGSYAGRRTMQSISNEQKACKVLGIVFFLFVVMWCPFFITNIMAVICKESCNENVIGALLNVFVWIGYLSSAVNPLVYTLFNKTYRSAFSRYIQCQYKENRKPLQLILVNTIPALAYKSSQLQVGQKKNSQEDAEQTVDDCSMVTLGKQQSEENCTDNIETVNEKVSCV
# Molecular target: 5-HT2A receptors (Rattus norvegicus, UniProt P14842)
# Test: Head shake response in rats over 30 minutes
# Details: compared with control rats and rats also given Moclobemide
smiles,measurement,value
"CN(C)CCc1c[nH]c2ccccc12 [DMT, N,N-dimethyltryptamine]","number of head shakes, tryptamine administered alone",higher than the control rats and those that were also given Moclobemide
